Experimental data: patent US20070025968A1, “Methods for selecting and producing T cell peptide epitopes and vaccines incorporating said selected epitopes” (priority 1996, published 2007)

Tests used:
HLA-A*0201 = HLA-A*0201 (Homo sapiens, UniProt P04439, D140Y/D185E/D98H/E176V/E277Q/G131W/G231S/I119V/I121R/I166T/I218V/L300P/L318F/N151K/N90K/P208A/P217A/Q86G/Q94H/R138H/R169H/T345S); assay: cell-based; conditions: Affinity IC50 (μM), Table VI; known CTL epitopes
HLA-A*0301 = HLA-A*0301 (Homo sapiens, UniProt P04439); assay: HLA class I peptide-binding competition assay on intact human B cells (EKR), FL-labeled reference peptide; conditions: IC50 (μM) competition assay

Row | SMILES | IC50 (HLA-A*0201) [µM] | IC50 (HLA-A*0301; 4° C., 24 hr) [µM] | IC50 (HLA-A*0301; 26° C., 3 hr) [µM] | IC50 (HLA-A*0301; 26° C., 24 hr) [µM]
1 | CC[C@H](C)[C@H](NC(=O)[C@H](Cc1ccc(O)cc1)NC(=O)CNC(=O)[C@H](CCSC)NC(=O)[C@H](CC(C)C)NC(=O)[C@@H](N)CC(=O)O)C(=O)N1CCC[C@H]1C(=O)N[C@@H](CC(C)C)C(=O)N[C@H](C(=O)O)C(C)C [reference compound] | 5 | – | – | –
2 | CSCC[C@H](NC(=O)[C@H](C)N)C(=O)N[C@@H](CO)C(=O)N[C@@H](C)C(=O)N[C@@H](C)C(=O)N[C@@H](CCCNC(=N)N)C(=O)N[C@@H](CO)C(=O)N[C@@H](CO)C(=O)N[C@@H](CCCNC(=N)N)C(=O)O | – | 4 | 6 | 7
